From patent publication US20130084328A1, “METHYLATED CODING AND NON-CODING RNA GENES AS DIAGNOSTIC AND THERAPEUTIC TOOLS FOR HUMAN MELANOMA” (Sanford-Burnham Medical Research Institute, priority 2011, published 2013)

System: WM1552C melanoma cells
Test: RNA deep sequencing (SOLiD) of WM1552C/34b versus WM1552C/VO cells
Format: cell-based, human
Conditions: BFAST; WM1552C/34b vs WM1552C/VO
Excerpt: Oligonucleotides complimentary to the hsa-miR-34b genomic sequences were constructed (miR-34b pre For-GTGCTCGGTT TGTAGGCAGT G [SEQ ID NO:25] and miR-34b pre Rev-GTGCCTTGTT TTGATGGCAG TG [SEQ ID NO:26]), containing HindIII and BamHI sites on their respective 5′ and 3′ ends, then amplified from melanocyte genomic DNA (Amplitaq Gold, Applied Biosystems/Life Technologies). The product was then TOPO cloned into pCR4-TOPO (Invitrogen/Life Technologies). The vector construct was sequenced and the pre-hsa-miR-34b fragment was sub-cloned into pcDNA4/H1-3TetR using the HindIII and BamHI sites to create pcDNA4/H1-3TetR/miR-34b. […] The following morning, cells were selected with 600 μg/mL Zeocin for the following 15 days.
Total RNA was isolated from samples using Trizol (Invitrogen/Life Technologies) and fragmented through RNase III digestion. SOLiD sequence protocols (Applied Biosytems/Life Technologies) require reverse transcription of these RNAs, priming with a ligated primer, and the resulting cDNA amplified and size-selected in a 6% urea gel with the help of SYBR Gold dye for sequencing. The sequence libraries (150-200 bp size fragments) were further amplified using a bead-based emulsion PCR optimized to physically isolate a single bead/cDNA molecule. This enables massively parallel amplification of monoclonal DNA species. For RNA-seq experiments, we deposited approximately 90 million beads per sample onto a glass slide and analyzed them using a ligation-based sequencing technology. Data were mapped to the human genome using both BioScope and BFAST software packages and analyzed at the Burnham Institute Bioinformatics core facility.
Mapping of the SOLiD sequence data was performed using the standard pipeline of Blat-like Fast Accurate Search Tool (BFAST) (Horner et al., 2009) against the human genome (hg19) (Rhead et al., 2010). […] It then hashes the reads to a number of genomic locations based on the indices and performs detailed alignments between the reads and the genomic sequence at the hashed locations. The final output of BFAST contains the mapped genomic locations of each read and the qualities (represented via alignment scores) of the mappings.
The expression level of a gene can be calculated based on the mapping results. The BFAST algorithm successfully mapped ˜63% of the reads to the reference genome; among the mapped reads, ˜89% were uniquely mapped. Only uniquely mapped reads were considered to eliminate possible noise. For each gene (from the RefSeq annotation for hg19), a score was calculated as reads per kilobase of sequence per million reads (RPKM) (Mortazavi et al., 2008).
The predefined mapping protocol for SOLiD sequencing on BioScope 1.0 was also used. BioScope was able to map ˜63% of the reads to the reference genome, ˜83% uniquely. The output was then fed into the Partek Genomics Suite for analysis. Again, an RPKM score was computed for each gene.
The results of the two analysis pipelines were compared to arrive at a consensus. […] For this calculation, a pseudo-count of 1.0 was used to overcome divide by zero errors and to normalize the data at low RPKM values. […] The order of the genes was then directed by the corroborated fold change. For the open reading frames, a cutoff was established with a minimum fold change of +/−1.5 (1.5 for miRNAs, −1.2 for target genes). The transcript delta was also obtained; this was used to select genes for further testing, this cutoff was set at 10.0 for open reading frames (1.3 for miRNAs, −2.0 for target genes). Of particular interest are the target genes of miR-34b.

“miR-34b: nucleic acid exemplified by SEQ ID NO:2 (CAAUCACUAACUCCACUGCCAU); stably expressed in WM1552C from pcDNA4/H1-3TetR/miR-34b (WM1552C/34b) (CAAUCACUAACUCCACUGCCAU)” was tested, and the “ACAN Fold Change” value was 2.20, the “ACAN Transcript Difference” value was 18.43 and the “ALCAM Fold Change” value was −2.31. The “ALCAM Transcript Difference” value was 10.22, the “AP2M1 Fold Change” value was −1.84 and the “AP2M1 Transcript Difference” value was 23.31. The “CADM4 Fold Change” value was 1.79, the “CADM4 Transcript Difference” value was 10.14 and the “CAVI Fold Change” value was −1.52. For the same substance, the “CAVI Transcript Difference” value was 15.33, the “COL6A1 Fold Change” value was −1.64 and the “COL6A1 Transcript Difference” value was 10.43. For the same substance, the “COL9A3 Fold Change” value was 1.78, the “COL9A3 Transcript Difference” value was 13.40 and the “CRIMI Fold Change” value was −1.69. The “CRIMI Transcript Difference” value was 11.42, the “CXCL1 Fold Change” value was −1.55 and the “CXCL1 Transcript Difference” value was 136.23. For the same substance, the “CYR61 Fold Change” value was −1.60, the “CYR61 Transcript Difference” value was 25.31 and the “DKK1 Fold Change” value was −9.27. The “DKK1 Transcript Difference” value was 15.87, the “FASN Fold Change” value was 1.72 and the “FASN Transcript Difference” value was 15.03. For the same substance, the “FBNI Fold Change” value was −2.54, the “FBNI Transcript Difference” value was 20.45 and the “FCRLA Fold Change” value was 2.84. For the same substance, the “FCRLA Transcript Difference” value was 14.95, the “FSTL1 Fold Change” value was −1.76 and the “FSTL1 Transcript Difference” value was 21.59. For the same substance, the “HLA-DRA Fold Change” value was 1.76, the “HLA-DRA Transcript Difference” value was 20.43 and the “HLA-DRBI Fold Change” value was 2.27. For the same substance, the “HLA-DRBI Transcript Difference” value was 15.71, the “ID3 Fold Change” value was −2.63 and the “ID3 Transcript Difference” value was 16.00. The “IGFBP2 Fold Change” value was 1.75, the “IGFBP2 Transcript Difference” value was 46.90 and the “IGFBP7 Fold Change” value was −2.12. The “IGFBP7 Transcript Difference” value was 43.32, the “IL1B Fold Change” value was −8.10 and the “IL1B Transcript Difference” value was 185.64. For the same substance, the “IL6 Fold Change” value was −1.62, the “IL6 Transcript Difference” value was 11.43 and the “INHBA Fold Change” value was −8.84. The “INHBA Transcript Difference” value was 9.96, the “ITGA3 Fold Change” value was −3.42 and the “ITGA3 Transcript Difference” value was 21.36. The “ITGB5 Fold Change” value was −1.67, the “ITGB5 Transcript Difference” value was 10.36 and the “KLF9 Fold Change” value was 1.60. For the same substance, the “KLF9 Transcript Difference” value was 12.71, the “LOXL2 Fold Change” value was −1.79 and the “LOXL2 Transcript Difference” value was 52.37. The “LYPD1 Fold Change” value was −3.98, the “LYPD1 Transcript Difference” value was 16.85 and the “MARCKSLI Fold Change” value was 1.68. For the same substance, the “MARCKSLI Transcript Difference” value was 10.96, the “MIA Fold Change” value was 1.90 and the “MIA Transcript Difference” value was 31.30. The “MIR20B Fold Change” value was 1.50, the “MIR20B Transcript Difference” value was 5.24 and the “MIR34B Fold Change” value was 4.95. The “MIR34B Transcript Difference” value was 3.95, the “MIR134 Fold Change” value was 1.80 and the “MIR134 Transcript Difference” value was 1.42. The “MIR140 Fold Change” value was 2.16, the “MIR140 Transcript Difference” value was 10.76 and the “MIR149 Fold Change” value was 1.91. The “MIR149 Transcript Difference” value was 5.56, the “MIR154 Fold Change” value was 1.83 and the “MIR154 Transcript Difference” value was 3.01. For the same substance, the “MIR181D Fold Change” value was 1.55, the “MIR181D Transcript Difference” value was 1.22 and the “MIR199B Fold Change” value was 1.67. For the same substance, the “MIR199B Transcript Difference” value was 3.68, the “MIR301A Fold Change” value was 1.62 and the “MIR301A Transcript Difference” value was 2.25. The “MIR323 Fold Change” value was 2.24, the “MIR323 Transcript Difference” value was 1.78 and the “MIR362 Fold Change” value was 1.82. The “MIR362 Transcript Difference” value was 1.56, the “MIR376A2 Fold Change” value was 2.08 and the “MIR376A2 Transcript Difference” value was 1.14. The “MIR380 Fold Change” value was 2.14, the “MIR380 Transcript Difference” value was 1.14 and the “MIR382 Fold Change” value was 1.95. For the same substance, the “MIR382 Transcript Difference” value was 1.12, the “MIR409 Fold Change” value was 5.11 and the “MIR409 Transcript Difference” value was 7.38. The “MIR410 Fold Change” value was 2.01, the “MIR410 Transcript Difference” value was 2.38 and the “MIR425 Fold Change” value was 1.55. For the same substance, the “MIR425 Transcript Difference” value was 1.66, the “MIR431 Fold Change” value was 1.75 and the “MIR431 Transcript Difference” value was 3.13. The “MIR432 Fold Change” value was 1.78, the “MIR432 Transcript Difference” value was 3.76 and the “MIR453 Fold Change” value was 2.93. For the same substance, the “MIR453 Transcript Difference” value was 2.27, the “MIR487A Fold Change” value was 2.06 and the “MIR487A Transcript Difference” value was 1.56. The “MIR494 Fold Change” value was 2.08, the “MIR494 Transcript Difference” value was 1.75 and the “MIR495 Fold Change” value was 2.94. The “MIR495 Transcript Difference” value was 3.47, the “MIR496 Fold Change” value was 1.60 and the “MIR496 Transcript Difference” value was 2.25. For the same substance, the “MIR501 Fold Change” value was 2.26, the “MIR501 Transcript Difference” value was 1.26 and the “MIR518A2 Fold Change” value was 1.88. For the same substance, the “MIR518A2 Transcript Difference” value was 1.16, the “MIR656 Fold Change” value was 1.97 and the “MIR656 Transcript Difference” value was 1.08. For the same substance, the “MIR660 Fold Change” value was 3.11, the “MIR660 Transcript Difference” value was 5.07 and the “MIR663B Fold Change” value was 1.99. The “MIR663B Transcript Difference” value was 27.73, the “MIR663 Fold Change” value was 1.71 and the “MIR663 Transcript Difference” value was 29.24. The “MIR1197 Fold Change” value was 1.58, the “MIR1197 Transcript Difference” value was 1.06 and the “MIR1205 Fold Change” value was 1.72. The “MIR1205 Transcript Difference” value was 1.06, the “MIR1312 Fold Change” value was 1.58 and the “MIR1312 Transcript Difference” value was 2.73. For the same substance, the “MMP14 Fold Change” value was −1.54, the “MMP14 Transcript Difference” value was 11.92 and the “MMPS Fold Change” value was 2.86. For the same substance, the “MMPS Transcript Difference” value was 10.55, the “NT5E Fold Change” value was 1.53 and the “NT5E Transcript Difference” value was 15.25. For the same substance, the “PDE1C Fold Change” value was −1.67, the “PDE1C Transcript Difference” value was 13.00 and the “PTTGHP Fold Change” value was −1.73. For the same substance, the “PTTGHP Transcript Difference” value was 16.78, the “RCANI Fold Change” value was 2.34 and the “RCANI Transcript Difference” value was 43.98. The “RPL24 Fold Change” value was 1.79, the “RPL24 Transcript Difference” value was 12.58 and the “RPL37A Fold Change” value was 1.67. The “RPL37A Transcript Difference” value was 25.39, the “S100A16 Fold Change” value was −2.84 and the “S100A16 Transcript Difference” value was 23.09. For the same substance, the “S100B Fold Change” value was 2.35, the “S100B Transcript Difference” value was 59.92 and the “SEMA3C Fold Change” value was −1.61. For the same substance, the “SEMA3C Transcript Difference” value was 12.41, the “SERPINA3 Fold Change” value was 2.45 and the “SERPINA3 Transcript Difference” value was 10.54. For the same substance, the “SERPINB2 Fold Change” value was −3.64, the “SERPINB2 Transcript Difference” value was 14.77 and the “SRGN Fold Change” value was −5.67. The “SRGN Transcript Difference” value was 14.98, the “STC1 Fold Change” value was −21.23 and the “STC1 Transcript Difference” value was 10.85. The “STC2 Fold Change” value was −4.48, the “STC2 Transcript Difference” value was 11.00 and the “TGFBI Fold Change” value was −1.60. The “TGFBI Transcript Difference” value was 19.23, the “THBS2 Fold Change” value was 1.53 and the “THBS2 Transcript Difference” value was 100.99. The “TNFRSF21 Fold Change” value was −3.92, the “TNFRSF21 Transcript Difference” value was 22.18 and the “TNS3 Fold Change” value was −1.57. For the same substance, the “TNS3 Transcript Difference” value was 32.33, the “TXNIP Fold Change” value was −2.34 and the “TXNIP Transcript Difference” value was 26.14. For the same substance, the “UGCG Fold Change” value was −1.76, the “UGCG Transcript Difference” value was 14.74 and the “WNT5A Fold Change” value was −2.19. The “WNT5A Transcript Difference” value was 16.19.
